Data: patent US9539349B2, “Formulation, apparatus and method for stabilizing radiopharmaceuticals” (Siemens Medical Solutions USA, Inc., priority 2010, dated 2017)

Test: Excipient screen: protective factor (PF) for [F-18]FLT in argon sparged vials
Details: at 50 mg/mL, as compared to oxygen

- stabilization of [F-18]FLT against radiolysis: not as effective
Compound: O=C1O[C@H]([C@@H](O)CO)C(O)=C1O [Ascorbic acid]
